scFv variants of Ab-14 (heavy chain) against a SARS-CoV-2 spike peptide

Antigen: PDVDLGDISGINAS, a 14-residue peptide of the SARS-CoV-2 spike HR2 region.

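The variants were designed computationally from a first round of random CDR variants and then made and measured. Their group label is 14H_Ctrl (Ctrl: baseline library sampled from a position-specific scoring matrix, with some repeated check sequences). The scFvs were displayed on barcoded MATa yeast, the peptide on MATalpha yeast. After mating in shaken culture at 30 °C for 16 h, diploids were selected and their barcode pairs sequenced. Scores were corrected for input abundance and mapped to Kd with protein pairs of known affinity run in the same pool. There are six technical replicates.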

The variants keep the light chain, the linker and the frameworks of Ab-14 (scFv order VH, the linker GGGGSGGGGSGGGGS, VL).
VH: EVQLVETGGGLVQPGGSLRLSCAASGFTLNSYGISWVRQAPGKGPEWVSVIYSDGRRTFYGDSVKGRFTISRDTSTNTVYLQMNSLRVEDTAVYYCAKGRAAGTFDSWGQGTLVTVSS
VL: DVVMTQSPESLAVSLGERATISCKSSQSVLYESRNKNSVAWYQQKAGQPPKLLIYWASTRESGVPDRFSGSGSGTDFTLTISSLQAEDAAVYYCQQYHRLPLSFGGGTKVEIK

Sequences are complete VH domains.
Scale: log10 of Kd in nM, estimated from mating counts; low values are strong binders.
Replicates are averaged; those with no signal do not enter the mean.
An entry "nd" has no value in the source: the pair was not observed among the diploids in that replicate. This suggests poor binding but is not conclusive.
Nonspecific signal, from three strains lacking the peptide, appeared in 1% of pairings of all heavy chain designs, centred on 2.08 (5% of these signals below 0.84); values are not corrected for it. The control count says in how many pairings with the empty strains this scFv gave a signal, with their mean in brackets.

VH | replicates, log10 nM | mean, log10 nM | empty controls
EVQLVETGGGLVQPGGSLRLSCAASGFDLNKYGISWVRQAPGKGPEWVSVIYSDGRRTFYGDSVKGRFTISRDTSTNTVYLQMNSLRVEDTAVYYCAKGRAYHQFDSWGQGTLVTVSS | nd nd nd nd nd nd | nd | 0 of 18
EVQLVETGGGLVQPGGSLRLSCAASGFTLNSYGISWVRQAPGKGPEWVSVIYSDGKRTFYSDSVKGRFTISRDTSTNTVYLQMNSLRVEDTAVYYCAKGRAARTFDSWGQGTLVTVSS | nd nd nd nd nd nd | nd | 0 of 18
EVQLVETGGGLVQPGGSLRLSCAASGFTLNSYGISWVRQAPGKGPEWVSVIYSDGRRTFYGDSVKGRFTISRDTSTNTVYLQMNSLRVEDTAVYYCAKGRAAQTFDSWGQGTLVTVSS | nd nd nd nd nd nd | nd | 1 of 18 (3.78)
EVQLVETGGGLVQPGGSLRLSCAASGFEMNSYGISWVRQAPGKGPEWVSVIYSDGRRTFYGDSVRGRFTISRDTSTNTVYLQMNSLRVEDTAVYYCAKGRAAGTFDQWGQGTLVTVSS | nd nd 1.85 nd 3.36 nd | 2.60 | 1 of 18 (2.44)
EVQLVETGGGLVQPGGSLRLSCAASGFTLNSYSISWVRQAPGKGPEWVSVIYSDGRRTFYGDSVKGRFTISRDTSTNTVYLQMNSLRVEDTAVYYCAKGRAVGTFDSWGQGTLVTVSS | nd nd nd nd nd nd | nd | 0 of 18
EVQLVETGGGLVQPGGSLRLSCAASGDTLNSYGISWVRQAPGKGPEWVSVIYSDGRRTFYGDSVKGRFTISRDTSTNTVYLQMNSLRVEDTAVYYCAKGEAAGTFDSWGQGTLVTVSS | nd nd nd nd 1.46 2.02 | 1.74 | 1 of 18 (0.97)
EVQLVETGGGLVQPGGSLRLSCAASGFTLESYGISWVRQAPGKGPEWVSVIYSDGRRTAYTDSVKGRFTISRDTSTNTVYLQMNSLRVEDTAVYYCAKGRAAGTFDSWGQGTLVTVSS | nd 0.69 0.85 nd 1.10 nd | 0.88 | 0 of 18
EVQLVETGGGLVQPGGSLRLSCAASGFTLDSYGISWVRQAPGKGPEWVSVIYSDGRRCFYDDSVKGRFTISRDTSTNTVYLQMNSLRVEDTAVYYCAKGSGAGTFDSWGQGTLVTVSS | nd nd nd nd nd nd | nd | 0 of 18
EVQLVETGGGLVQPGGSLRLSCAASGFDINSYGISWVRQAPGKGPEWVSVIYSDGRRQFYIDSVKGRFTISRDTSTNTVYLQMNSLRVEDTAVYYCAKGRAAGTFDSWGQGTLVTVSS | 0.17 0.93 0.28 0.26 0.46 0.75 | 0.48 | 0 of 18
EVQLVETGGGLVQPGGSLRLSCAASGETLNSYGISWVRQAPGKGPEWVSVIYSDGRRTFYSDSVKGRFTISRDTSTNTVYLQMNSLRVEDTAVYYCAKGRAAATFDSWGQGTLVTVSS | nd nd nd nd 1.93 nd | 1.93 | 1 of 18 (1.14)
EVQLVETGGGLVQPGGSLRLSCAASGNTLNSYGISWVRQAPGKGPEWVSVIYSDGSRTFYGDSVKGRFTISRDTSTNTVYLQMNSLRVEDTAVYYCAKGRAAGTFDSWGQGTLVTVSS | 2.43 nd 2.41 nd 3.00 3.43 | 2.81 | 0 of 18
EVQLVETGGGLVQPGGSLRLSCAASLFTLNDYGISWVRQAPGKGPEWVSVIYSDGRRTFYQDSVKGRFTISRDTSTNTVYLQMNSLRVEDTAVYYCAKGQAAGTFDSWGQGTLVTVSS | nd nd nd nd nd nd | nd | 0 of 18
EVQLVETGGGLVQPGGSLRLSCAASGFTLNSYGISWVRQAPGKGPEWVSVIYSDGRRTFYGDSVKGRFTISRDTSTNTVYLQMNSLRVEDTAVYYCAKGFAAGTFDSWGQGTLVTVSS | 0.00 0.59 0.23 0.79 0.41 -0.12 | 0.32 | 0 of 18
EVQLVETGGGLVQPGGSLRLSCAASGFTLNSYGISWVRQAPGKGPEWVSVIYRDGRRTFYGDQVKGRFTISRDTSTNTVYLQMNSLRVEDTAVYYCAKGRAAGTFCSWGQGTLVTVSS | nd nd 2.59 nd nd nd | 2.59 | 0 of 18
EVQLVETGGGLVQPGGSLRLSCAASGFTLNEYGISWVRQAPGKGPEWVSVIYSDGRRTFYGDSVKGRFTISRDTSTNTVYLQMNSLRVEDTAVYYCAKGSAAGTKDSWGQGTLVTVSS | nd nd nd nd nd nd | nd | 0 of 18
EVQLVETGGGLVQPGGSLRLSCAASGFTLNSYGISWVRQAPGKGPEWVSVIYSDGRRTFYNDSTKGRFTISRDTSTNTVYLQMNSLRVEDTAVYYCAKGRAAGTFDSWGQGTLVTVSS | nd nd nd nd nd nd | nd | 0 of 18
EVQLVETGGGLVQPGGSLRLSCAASGFTLNSYGISWVRQAPGKGPEWVSVIYSDGRRTEYGDSVKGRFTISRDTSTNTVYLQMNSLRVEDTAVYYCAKGRAAGTFDCWGQGTLVTVSS | nd nd nd nd nd nd | nd | 0 of 18

The closing 2 entries, repeated:

VH | replicates, log10 nM | mean, log10 nM | empty controls
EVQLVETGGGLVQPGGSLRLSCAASGFTLNSYGISWVRQAPGKGPEWVSVIYSDGRRTFYNDSTKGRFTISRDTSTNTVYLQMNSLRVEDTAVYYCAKGRAAGTFDSWGQGTLVTVSS | nd nd nd nd nd nd | nd | 0 of 18
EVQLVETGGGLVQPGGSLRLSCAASGFTLNSYGISWVRQAPGKGPEWVSVIYSDGRRTEYGDSVKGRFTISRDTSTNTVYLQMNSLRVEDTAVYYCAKGRAAGTFDCWGQGTLVTVSS | nd nd nd nd nd nd | nd | 0 of 18

The parent sequence was in this pool as ten entries: three were never detected, three once, and four in most replicates, with averages from 0.34 to 2.37.
The authors averaged sequences with at least three values out of six and counted those with two or fewer as poor binders.
A sequence measured in both rounds can read differently, since the two assays cover different ranges.

The measurements come from Li et al. 2023 (doi:10.1038/s41467-023-39022-2) through the FLAb antibody collection.